The values that follow come from patent US11339157B1, “4H-pyrrolo[3,2-c]pyridin-4-one derivatives” (Bayer Aktiengesellschaft, priority 2017, dated 2022).

The chains behind the UniProt entries cited, without tags or fusion partners. A line that says so, or that is headed by a name, gives the form on record, which may keep a tag or linker.
UniProt P00533, with tags, fused parts or gaps INS767SVD limits assumed: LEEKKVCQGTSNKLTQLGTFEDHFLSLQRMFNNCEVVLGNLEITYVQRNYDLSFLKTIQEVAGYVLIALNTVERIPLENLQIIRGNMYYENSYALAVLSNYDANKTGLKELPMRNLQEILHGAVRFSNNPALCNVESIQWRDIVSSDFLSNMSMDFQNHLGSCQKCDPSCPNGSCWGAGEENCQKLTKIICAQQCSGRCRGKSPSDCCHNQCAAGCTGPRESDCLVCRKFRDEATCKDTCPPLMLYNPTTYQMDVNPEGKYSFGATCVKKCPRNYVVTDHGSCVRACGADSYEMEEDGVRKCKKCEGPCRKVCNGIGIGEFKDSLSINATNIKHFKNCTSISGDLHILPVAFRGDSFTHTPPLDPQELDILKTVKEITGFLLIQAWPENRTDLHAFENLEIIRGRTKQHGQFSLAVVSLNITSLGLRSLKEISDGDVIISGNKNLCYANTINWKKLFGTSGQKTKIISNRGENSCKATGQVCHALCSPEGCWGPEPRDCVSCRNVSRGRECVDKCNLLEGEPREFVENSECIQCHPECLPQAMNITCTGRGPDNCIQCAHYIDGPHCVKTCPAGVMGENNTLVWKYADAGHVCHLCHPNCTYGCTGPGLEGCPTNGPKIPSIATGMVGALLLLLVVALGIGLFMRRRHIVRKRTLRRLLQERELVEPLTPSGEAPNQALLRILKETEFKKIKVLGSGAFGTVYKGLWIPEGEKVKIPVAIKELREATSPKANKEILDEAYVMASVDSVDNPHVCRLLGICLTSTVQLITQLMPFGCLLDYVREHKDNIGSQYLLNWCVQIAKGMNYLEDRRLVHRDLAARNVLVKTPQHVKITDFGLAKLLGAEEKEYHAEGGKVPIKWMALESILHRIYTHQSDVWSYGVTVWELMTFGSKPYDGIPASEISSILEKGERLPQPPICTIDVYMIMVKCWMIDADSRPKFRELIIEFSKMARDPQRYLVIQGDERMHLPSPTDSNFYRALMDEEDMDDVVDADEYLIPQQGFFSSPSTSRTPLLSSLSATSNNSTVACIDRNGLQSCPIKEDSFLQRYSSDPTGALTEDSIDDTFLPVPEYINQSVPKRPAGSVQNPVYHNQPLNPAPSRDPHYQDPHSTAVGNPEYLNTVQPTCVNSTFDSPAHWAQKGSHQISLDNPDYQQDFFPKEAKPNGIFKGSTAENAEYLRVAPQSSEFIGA

pIC50: −log10 of the molar value. Like-named read-outs stand apart in the source and are kept apart here.

One assay has as its system Ba/F3-EGFR-insSVD cells. Put plainly: Proliferation assay in BA/F3 (ins SVD) cells (Cell Titer-Glo). The class given is cell-based. As to conditions: read-out: BA/F3 (insSVD) IC50. (Cellular ATP, detected with luciferase, serves as a proxy for viable cell number.)
The test system of a further assay is Ba/F3-EGFR-WT cells. Put plainly: Proliferation assay in BA/F3 (wild type) cells (Cell Titer-Glo). The class given is cell-based. As to conditions: read-out: BA/F3 (wild type) IC50.
Assay [1] deals with EGFR ins SVD (insertion of SVD between D770 and N771) (Homo sapiens, UniProt P00533, INS767SVD). Briefly: Exon 20-Mutant-EGFR(D770_N771insSVD) kinase assay (TR-FRET). In kind it is biochemical. The following applies: read-out: mutEGFR (D770_N771insSVD) kinase assay IC50; Table 9. (Time-resolved FRET reads energy transfer from a long-lived donor to a nearby acceptor.)
[2] abbreviates: Table 11, prior art examples of WO2016/120196.

Turning to `COCCOc1cnccc1-c1[nH]c2c(c1Nc1ccc(F)c(F)c1)C(=O)NCC2`, the pIC50 is under 5.70 in the assay on Ba/F3-EGFR-insSVD cells (setting [2]) and 5.39 with Ba/F3-EGFR-WT cells (setting [2]).

In the case of `O=C1NCCc2[nH]c(-c3ccncc3OCC(F)F)c(Nc3cccc(F)c3)c21`, the figures for the pIC50 in the assay on Ba/F3-EGFR-insSVD cells (setting [2]) and in the assay on Ba/F3-EGFR-WT cells (setting [2]) were under 5.70 and 5.30, respectively.

As to `O=C1NCCc2[nH]c(-c3ccncc3OCC3CC3)c(Nc3ccc(F)cc3)c21`, the pIC50 in the assay on Ba/F3-EGFR-insSVD cells (setting [2]) was under 5.70; in the assay with Ba/F3-EGFR-WT cells (setting [2]) it was 5.23.

Regarding `Cc1c(F)cccc1Nc1c(-c2ccncc2OCC2CCOC2)[nH]c2c1C(=O)NCC2` (stereo not drawn), the pIC50 in assay [1] is 9.28; with Ba/F3-EGFR-insSVD cells (Table 10, proliferation, plated without EGF, 48 h), 6.84; with Ba/F3-EGFR-WT cells (Table 10, proliferation, plated with 10 ng/mL EGF, 48 h), 5.65.
